Measured values: patent US12215460B2, “Methods of microbial control” (Clean Chemistry, Inc., priority 2015, dated 2025)

Assay: Cooling tower water: ORP and oxidant half life
Type: physicochemical
Conditions: total oxidant 0.2 to 0.5 ppm Cl2, pH about 7.8-8.2

chlorine
ORP of the cooling water: 500-575 mV (vs SHE)
